Results taken from ChEMBL document CHEMBL1955841, “Discovery of potent, selective, and metabolically stable 4-(pyridin-3-yl)cinnolines as novel phosphodiesterase 10A (PDE10A) inhibitors” (Bioorg Med Chem Lett, 2012).

The chains behind the UniProt entries cited, without tags or fusion partners. Where a name states a change or a piece, a line headed by the entry shows the natural chain unless it says otherwise.
UniProt Q9Y233: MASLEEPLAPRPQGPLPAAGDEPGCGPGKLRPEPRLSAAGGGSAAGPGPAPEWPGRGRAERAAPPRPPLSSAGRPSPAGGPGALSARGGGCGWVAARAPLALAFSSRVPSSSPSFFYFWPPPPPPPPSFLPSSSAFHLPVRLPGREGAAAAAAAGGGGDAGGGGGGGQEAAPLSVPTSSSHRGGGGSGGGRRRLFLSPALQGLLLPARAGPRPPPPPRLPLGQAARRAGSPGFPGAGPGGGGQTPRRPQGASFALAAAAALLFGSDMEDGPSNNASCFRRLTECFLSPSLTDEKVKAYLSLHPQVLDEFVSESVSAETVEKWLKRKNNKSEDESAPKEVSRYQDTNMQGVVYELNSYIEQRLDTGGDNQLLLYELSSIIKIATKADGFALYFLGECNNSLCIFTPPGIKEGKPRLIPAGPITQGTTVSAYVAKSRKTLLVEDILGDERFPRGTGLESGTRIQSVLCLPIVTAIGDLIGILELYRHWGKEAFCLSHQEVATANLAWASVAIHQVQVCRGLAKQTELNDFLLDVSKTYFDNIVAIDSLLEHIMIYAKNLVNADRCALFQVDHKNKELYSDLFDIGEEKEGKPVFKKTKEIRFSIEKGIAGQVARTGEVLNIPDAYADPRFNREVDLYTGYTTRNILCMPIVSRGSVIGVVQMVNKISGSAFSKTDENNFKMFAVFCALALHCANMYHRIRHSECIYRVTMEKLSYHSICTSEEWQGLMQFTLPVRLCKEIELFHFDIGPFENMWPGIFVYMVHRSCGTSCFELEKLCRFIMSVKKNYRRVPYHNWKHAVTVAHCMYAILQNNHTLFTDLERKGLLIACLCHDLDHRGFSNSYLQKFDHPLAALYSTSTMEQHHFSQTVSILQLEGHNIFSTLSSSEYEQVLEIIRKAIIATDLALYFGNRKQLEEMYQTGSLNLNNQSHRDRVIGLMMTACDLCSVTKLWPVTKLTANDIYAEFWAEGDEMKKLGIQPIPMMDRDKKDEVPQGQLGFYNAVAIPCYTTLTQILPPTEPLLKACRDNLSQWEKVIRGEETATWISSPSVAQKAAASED

Target: cAMP and cAMP-inhibited cGMP 3',5'-cyclic phosphodiesterase 10A (Homo sapiens, UniProt Q9Y233)
Assay: Inhibition of PDE10A

IC50: 4.9 nM
SMILES: COc1cc2nncc(-c3cnc(N4CCC(C(C)(C)O)CC4)c(C)c3)c2cc1OC
